In the assay the target is T1, Myeloperoxidase (Homo sapiens, UniProt P05164).
T1 sequence (P05164 whole entry): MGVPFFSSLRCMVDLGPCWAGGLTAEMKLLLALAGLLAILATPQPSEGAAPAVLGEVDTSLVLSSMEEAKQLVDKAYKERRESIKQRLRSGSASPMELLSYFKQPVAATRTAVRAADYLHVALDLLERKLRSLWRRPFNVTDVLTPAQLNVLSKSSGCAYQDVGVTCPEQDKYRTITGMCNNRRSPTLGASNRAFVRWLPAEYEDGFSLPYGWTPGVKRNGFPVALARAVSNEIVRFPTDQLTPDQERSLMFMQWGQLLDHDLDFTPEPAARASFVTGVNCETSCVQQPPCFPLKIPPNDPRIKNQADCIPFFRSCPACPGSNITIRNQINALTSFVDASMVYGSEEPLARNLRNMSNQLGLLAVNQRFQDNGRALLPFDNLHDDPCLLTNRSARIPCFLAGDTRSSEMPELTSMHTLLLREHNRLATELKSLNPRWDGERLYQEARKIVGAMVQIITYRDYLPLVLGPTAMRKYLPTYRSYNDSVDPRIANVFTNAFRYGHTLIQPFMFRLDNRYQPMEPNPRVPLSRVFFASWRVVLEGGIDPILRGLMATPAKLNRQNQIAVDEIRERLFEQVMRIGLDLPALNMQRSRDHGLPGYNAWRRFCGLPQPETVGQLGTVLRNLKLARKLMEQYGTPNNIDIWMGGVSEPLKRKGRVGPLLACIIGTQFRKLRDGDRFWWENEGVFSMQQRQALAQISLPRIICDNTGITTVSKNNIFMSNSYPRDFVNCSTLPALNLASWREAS
The assay is described as follows: Inhibition of peroxidase activity of MPO isolated from human polynuclear leukocytes using Amplex Red as substrate assessed as formation of resorufin measured every 20 secs by spectrophotometric analysis. The gist of the method: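 MPO purified from human polynuclear leukocytes, in 50 mM sodium phosphate pH 7.4 with 150 mM NaCl, 1 mM DTPA, 2 μM H₂O₂ and 30 μM Amplex Red. Resorufin fluorescence (ex 530/em 580 nm) read every 20 s at room temperature. k_obs fitted from progress curves; k_inact/K_I from the k_obs vs [I] slope; geometric mean of ≥2 experiments.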

By Ki is commonly meant a dissociation constant, usually derived from enzyme kinetics or from competition with a known ligand.

The structures appear in SMILES notation.

In the case of `COc1ccc(Cl)cc1-c1cc(=O)[nH]c(=S)n1CC(N)=O` [PF-06282999], the Ki was 0.316 µM.
